Values quoted from earlier work, collected in patent US10421768B2, “Method of biotransformation of benzopyrone compounds into the corresponding phosphate-conjugated derivatives” (National Taiwan University, priority 2016, dated 2019).

Details: derivatives reported in several studies; cited from earlier work

Substance: daidzein-7-O-triglucoside
- water solubility relative to aglyconic form of isoflavones: higher water solubility
